Measured values as given in patent EP4847505A1, “4-METHYLSULFONYL-SUBSTITUTED PIPERIDINE UREA COMPOUNDS” (dated 2026).

By UniProt entry, the sequences of proteins in these tests, tags left out.
UniProt Q9BE39, whole entry: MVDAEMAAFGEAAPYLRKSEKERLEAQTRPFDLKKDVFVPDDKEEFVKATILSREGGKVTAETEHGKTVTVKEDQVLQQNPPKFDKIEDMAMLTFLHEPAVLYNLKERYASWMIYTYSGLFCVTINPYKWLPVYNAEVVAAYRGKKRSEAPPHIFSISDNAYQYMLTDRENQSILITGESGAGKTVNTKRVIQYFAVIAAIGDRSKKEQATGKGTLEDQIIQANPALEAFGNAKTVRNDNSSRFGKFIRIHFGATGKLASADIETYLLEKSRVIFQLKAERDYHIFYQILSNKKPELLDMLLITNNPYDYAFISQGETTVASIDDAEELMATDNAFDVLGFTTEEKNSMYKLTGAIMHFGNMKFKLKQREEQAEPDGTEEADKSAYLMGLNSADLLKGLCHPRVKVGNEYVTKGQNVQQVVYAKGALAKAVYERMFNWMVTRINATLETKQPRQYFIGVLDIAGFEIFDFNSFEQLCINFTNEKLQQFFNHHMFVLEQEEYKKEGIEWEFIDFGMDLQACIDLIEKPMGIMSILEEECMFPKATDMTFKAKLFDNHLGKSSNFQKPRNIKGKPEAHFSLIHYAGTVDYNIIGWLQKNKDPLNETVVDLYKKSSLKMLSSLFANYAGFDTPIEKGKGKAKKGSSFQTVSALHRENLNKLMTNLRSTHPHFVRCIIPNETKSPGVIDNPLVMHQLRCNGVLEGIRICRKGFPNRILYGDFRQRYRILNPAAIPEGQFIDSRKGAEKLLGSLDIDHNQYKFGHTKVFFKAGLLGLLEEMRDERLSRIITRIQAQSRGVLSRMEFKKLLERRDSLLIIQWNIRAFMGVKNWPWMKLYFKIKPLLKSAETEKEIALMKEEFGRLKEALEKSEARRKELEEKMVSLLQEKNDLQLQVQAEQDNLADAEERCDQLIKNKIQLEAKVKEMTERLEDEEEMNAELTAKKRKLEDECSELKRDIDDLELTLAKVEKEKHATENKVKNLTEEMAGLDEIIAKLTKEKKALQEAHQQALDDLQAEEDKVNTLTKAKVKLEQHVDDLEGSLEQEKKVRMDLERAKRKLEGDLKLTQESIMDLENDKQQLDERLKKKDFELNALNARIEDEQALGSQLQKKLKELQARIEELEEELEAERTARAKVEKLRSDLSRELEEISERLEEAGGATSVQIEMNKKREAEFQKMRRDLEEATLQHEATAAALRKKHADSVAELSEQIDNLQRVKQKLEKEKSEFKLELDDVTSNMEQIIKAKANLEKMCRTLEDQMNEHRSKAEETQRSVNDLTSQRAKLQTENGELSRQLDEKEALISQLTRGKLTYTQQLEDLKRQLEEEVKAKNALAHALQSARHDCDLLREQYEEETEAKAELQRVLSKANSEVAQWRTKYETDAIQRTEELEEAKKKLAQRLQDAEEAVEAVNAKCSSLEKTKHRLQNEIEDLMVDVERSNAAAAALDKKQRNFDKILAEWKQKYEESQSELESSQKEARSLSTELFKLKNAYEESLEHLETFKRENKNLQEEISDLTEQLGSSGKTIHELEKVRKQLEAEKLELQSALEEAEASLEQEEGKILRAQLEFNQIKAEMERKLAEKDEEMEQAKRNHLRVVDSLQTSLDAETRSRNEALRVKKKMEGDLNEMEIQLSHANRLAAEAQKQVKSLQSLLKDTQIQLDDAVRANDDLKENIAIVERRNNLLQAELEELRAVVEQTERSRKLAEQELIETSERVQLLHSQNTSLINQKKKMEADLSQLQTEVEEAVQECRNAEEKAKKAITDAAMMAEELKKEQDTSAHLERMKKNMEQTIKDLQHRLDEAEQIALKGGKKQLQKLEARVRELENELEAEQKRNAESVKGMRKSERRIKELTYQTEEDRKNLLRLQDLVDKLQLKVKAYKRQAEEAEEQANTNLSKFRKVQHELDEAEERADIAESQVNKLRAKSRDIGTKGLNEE
UniProt P85100, whole entry partner: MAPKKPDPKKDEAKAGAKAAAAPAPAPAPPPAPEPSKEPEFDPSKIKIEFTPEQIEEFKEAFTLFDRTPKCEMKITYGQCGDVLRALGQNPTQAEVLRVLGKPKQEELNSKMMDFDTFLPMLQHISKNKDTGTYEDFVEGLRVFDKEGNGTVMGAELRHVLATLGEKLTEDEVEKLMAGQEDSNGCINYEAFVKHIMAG
UniProt Q3SZE5, whole entry partner: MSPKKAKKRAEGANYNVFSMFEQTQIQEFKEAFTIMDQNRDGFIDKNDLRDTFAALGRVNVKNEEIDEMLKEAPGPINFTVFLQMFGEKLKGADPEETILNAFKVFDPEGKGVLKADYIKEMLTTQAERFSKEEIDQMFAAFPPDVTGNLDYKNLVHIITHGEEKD

biological target: bovine cardiac myosin (Bos taurus, UniProt Q9BE39); assay: Myosin activation assay (PK/LDH-coupled ATPase, bovine cardiac myofibrils); settings: concentration at which the total response is increased by twenty percent
Protocol: Small molecule agents were assessed for their ability to activate the enzymatic activity of bovine cardiac myosin using a biochemical assay that couples the release of ADP (adenosine diphosphate) from cardiac myosin to an enzymatic coupling system consisting of pyruvate kinase and lactate dehydrogenase (PK/LDH) and monitoring the absorbance decrease of NADH (at 340 nm) as a function of time. PK converts ADP to ATP (adenosine triphosphate) by converting PEP (phosphoenolpyruvate) to pyruvate. Pyruvate is then converted to lactate by LDH by converting NADH (nicotinamide adenine dinucleotide) to NAD (oxidized nicotinamide adenine dinucleotide). The source of cardiac myosin was from bovine heart in the form of skinned myofibrils. Prior to testing small molecule agents, the bovine myofibrils were assessed for their calcium responsiveness and the calcium concentration that achieves either a 50% (pCa50 or pCa = ~ 6) or < 5% (pCa = 10) activation of the myofibril system was chosen as the final condition for assessing the activation activity of the small molecule agents. All enzymatic activity was measured in a buffered solution containing 12 mM PIPES (piperazine-N,N'-bis(2-ethanesulfonic acid), 2 mM magnesium chloride at pH 6.8 (PM12 buffer). Final assay conditions were 1 mg/mL of bovine cardiac myofibrils, 0.4 mM PK/LDH, 50 uM ATP, 0.1 mg/mL BSA (bovine serum albumin), 10 ppm antifoam, 2 mM BME, 0.5 mM NADH, 1.5 mM PEP at the desired free calcium concentration required to achieve either 50% or < 5% activation of the myofibrils.
A dilution series of compound was created in DMSO such that the final desired concentration of compound would be achieved in a volume of 100 µL with a fixed DMSO concentration of 3.3% (v/v). Typically a 1 µL of the dilution series was added to a 384 well plate to achieve a 10 point dose response. Following the addition of 14 µL of a solution containing bovine cardiac myofibrils, PK/LDH and a solution of calcium (that achieved the desired activation), the enzymatic reaction was started with the addition of 15 µL of a solution containing ATP, PEP and NADH. The reaction progress was followed in a PerkinElmer Envision plate reader at ambient temperature using clear bottom plates. The plate reader was configured to read absorbance at 340 nm in kinetics mode for 15 minutes. Data were recorded as the slope of the absorbance response to time. The slopes of the absorbance response as a function of time were normalized to slopes on the plate containing DMSO. This normalized rate was then plotted as a function of small molecule concentration and the data was fitted to a four-parameter fit using EXCEL XLfit. The concentration at which the total response is increased by twenty or fifty percent is reported as AC20 or AC50. […] Table 2. Myosin Activation of Selected Compoundsa

| SMILES | Myosin Activation (AC20) |
| --- | --- |
| Cn1cc(S(=O)(=O)C(C)(C)C2CCN(C(=O)Nc3ccon3)CC2)c(C(F)F)n1 | ++ (++ represents myosin activation value AC20 from 2 µM - 5 µM) |
| Cn1cc(S(=O)(=O)C(C)(C)C2CCN(C(=O)Nc3ccncc3)CC2)cn1 | + (+ represents myosin activation value AC20 > 5 µM) |
| CC(C)(C1CCN(C(=O)Nc2ccnnc2)CC1)S(=O)(=O)c1ccccc1Cl | +++ (+++ represents myosin activation value AC20 < 2 µM) |
| C[C@](F)(C1CCN(C(=O)Nc2ccnc(CO)c2)CC1)S(=O)(=O)c1cccc(F)c1 | +++ (+++ represents myosin activation value AC20 < 2 µM) |
| CC(F)(C1CCN(C(=O)Nc2cnoc2)CC1)S(=O)(=O)c1cccc(F)c1 (stereo not drawn) | +++ (+++ represents myosin activation value AC20 < 2 µM) |
| CC(C)(C1CCN(C(=O)Nc2ccns2)CC1)S(=O)(=O)c1cc(F)cc(F)c1 | +++ (+++ represents myosin activation value AC20 < 2 µM) |
| Cn1nc(Cl)cc1S(=O)(=O)C(C)(C)C1CCN(C(=O)Nc2ccc(F)nc2)CC1 | +++ (+++ represents myosin activation value AC20 < 2 µM) |
| CC(F)(C1CCN(C(=O)Nc2ccc(F)nc2)CC1)S(=O)(=O)c1ccc(C#N)cc1 (stereo not drawn) | ++ (++ represents myosin activation value AC20 from 2 µM - 5 µM) |
| Cn1nc(C(F)F)cc1S(=O)(=O)C(C)(C)C1CCN(C(=O)Nc2ccnc(F)c2)CC1 | +++ (+++ represents myosin activation value AC20 < 2 µM) |
| Cn1cc(S(=O)(=O)C(F)(F)C2CCN(C(=O)Nc3ccnc(CO)c3)CC2)c(C(F)F)n1 | ++ (++ represents myosin activation value AC20 from 2 µM - 5 µM) |
| CC(C)(C1CCN(C(=O)Nc2ccnc(Cl)c2)CC1)S(=O)(=O)c1cccc(F)c1 | ++ (++ represents myosin activation value AC20 from 2 µM - 5 µM) |
| CC(C)(C1CCN(C(=O)Nc2ccc(F)nc2)CC1)S(=O)(=O)c1cccc(F)c1 | ++ (++ represents myosin activation value AC20 from 2 µM - 5 µM) |
| Cc1cc(S(=O)(=O)C(C)(C)C2CCN(C(=O)Nc3ccnnc3)CC2)n(C)n1 | +++ (+++ represents myosin activation value AC20 < 2 µM) |
| CC(C)(C1CCN(C(=O)Nc2ccnnc2)CC1)S(=O)(=O)c1ccc(C(F)(F)F)nc1 | ++ (++ represents myosin activation value AC20 from 2 µM - 5 µM) |
| Cn1cc(S(=O)(=O)C(F)(F)C2CCN(C(=O)Nc3ccnnc3)CC2)c(C(F)F)n1 | ++ (++ represents myosin activation value AC20 from 2 µM - 5 µM) |
| CC(C)(C1CCN(C(=O)Nc2ccnnc2)CC1)S(=O)(=O)c1cc(F)cc(F)c1 | +++ (+++ represents myosin activation value AC20 < 2 µM) |
| Cn1nc(C(F)F)cc1S(=O)(=O)C(C)(F)C1CCN(C(=O)Nc2ccnc(F)c2)CC1 (stereo not drawn) | ++ (++ represents myosin activation value AC20 from 2 µM - 5 µM) |
| Cc1ccc(NC(=O)N2CCC([C@@](C)(F)S(=O)(=O)c3cn(C)nc3C(F)F)CC2)cn1 | + (+ represents myosin activation value AC20 > 5 µM) |
| O=C(Nc1cncs1)N1CCC(C2(S(=O)(=O)c3cccc(F)c3)CC2)CC1 | +++ (+++ represents myosin activation value AC20 < 2 µM) |
| O=C(Nc1ccnnc1)N1CCC(C(F)(F)S(=O)(=O)c2ccc3ccnn3c2)CC1 | ++ (++ represents myosin activation value AC20 from 2 µM - 5 µM) |
| O=C(Nc1cnns1)N1CCC(C(F)(F)S(=O)(=O)c2cccc(F)c2)CC1 | + (+ represents myosin activation value AC20 > 5 µM) |
| Cn1nc(C(F)(F)F)cc1S(=O)(=O)C(C)(C)C1CCN(C(=O)Nc2ccc(F)nc2)CC1 | ++ (++ represents myosin activation value AC20 from 2 µM - 5 µM) |
| Cn1nc(C(F)(F)F)cc1S(=O)(=O)[C@@](C)(F)C1CCN(C(=O)Nc2ccnc(F)c2)CC1 | +++ (+++ represents myosin activation value AC20 < 2 µM) |
| CC(F)(C1CCN(C(=O)Nc2ccc(F)nc2)CC1)S(=O)(=O)c1ccc(C(F)(F)F)cc1 (stereo not drawn) | ++ (++ represents myosin activation value AC20 from 2 µM - 5 µM) |
| CC(C)(C1CCN(C(=O)Nc2cncnc2)CC1)S(=O)(=O)c1cccc(F)c1 | + (+ represents myosin activation value AC20 > 5 µM) |
| Cc1cc(S(=O)(=O)C(F)(F)C2CCN(C(=O)Nc3ccnnc3)CC2)n(C(C)C)n1 | + (+ represents myosin activation value AC20 > 5 µM) |

| SMILES | Myosin Activation (AC20) |
| --- | --- |
| COc1ccc(Cl)c(S(=O)(=O)C(F)(F)C2CCN(C(=O)Nc3ccnnc3)CC2)c1 | +++ (+++ represents myosin activation value AC20 < 2 µM) |
| Cn1nc(C(C)(C)C)cc1S(=O)(=O)C(F)(F)C1CCN(C(=O)Nc2ccnnc2)CC1 | + (+ represents myosin activation value AC20 > 5 µM) |
| Cc1ccc(NC(=O)N2CCC(C(C)(F)S(=O)(=O)c3ccnn3C)CC2)cn1 (stereo not drawn) | ++ (++ represents myosin activation value AC20 from 2 µM - 5 µM) |
| Cn1cc(S(=O)(=O)C(C)(F)C2CCN(C(=O)Nc3ccon3)CC2)c(C(F)(F)F)n1 (stereo not drawn) | ++ (++ represents myosin activation value AC20 from 2 µM - 5 µM) |
| CC(C)(C1CCN(C(=O)Nc2ccnnc2)CC1)S(=O)(=O)c1ccccc1C#N | + (+ represents myosin activation value AC20 > 5 µM) |
| CC(C)(C1CCN(C(=O)Nc2nccs2)CC1)S(=O)(=O)c1cccc(F)c1 | + (+ represents myosin activation value AC20 > 5 µM) |
| CN(C)c1ncccc1S(=O)(=O)C(F)(F)C1CCN(C(=O)Nc2ccnnc2)CC1 | + (+ represents myosin activation value AC20 > 5 µM) |
| CN(C(=O)N1CCC(C(C)(C)S(=O)(=O)c2cccc(F)c2)CC1)c1ccncc1 | + (+ represents myosin activation value AC20 > 5 µM) |
| Cn1cc(NC(=O)N2CCC(C(C)(C)S(=O)(=O)c3cccc(F)c3)CC2)cn1 | + (+ represents myosin activation value AC20 > 5 µM) |
| COc1ncccc1S(=O)(=O)C(C)(C)C1CCN(C(=O)Nc2ccnnc2)CC1 | ++ (++ represents myosin activation value AC20 from 2 µM - 5 µM) |
| Cn1nc(C(F)(F)F)cc1S(=O)(=O)C(C)(C)C1CCN(C(=O)Nc2ccnnc2)CC1 | +++ (+++ represents myosin activation value AC20 < 2 µM) |
| Cn1cc(S(=O)(=O)C(C)(F)C2CCN(C(=O)Nc3ccnnc3)CC2)c(C(F)(F)F)n1 (stereo not drawn) | ++ (++ represents myosin activation value AC20 from 2 µM - 5 µM) |
| Cn1nc(C(F)F)cc1S(=O)(=O)C(C)(C)C1CCN(C(=O)Nc2ccon2)CC1 | ++ (++ represents myosin activation value AC20 from 2 µM - 5 µM) |
| Cn1nccc1S(=O)(=O)C1(C2CCN(C(=O)Nc3cnns3)CC2)CCC1 | +++ (+++ represents myosin activation value AC20 < 2 µM) |
| Cn1nc(C(F)(F)F)cc1S(=O)(=O)C(C)(F)C1CCN(C(=O)Nc2ccon2)CC1 (stereo not drawn) | ++ (++ represents myosin activation value AC20 from 2 µM - 5 µM) |
| Cc1ccc(S(=O)(=O)CC2CCN(C(=O)Nc3ccncc3)CC2)cc1 | + (+ represents myosin activation value AC20 > 5 µM) |
| Cc1ccc(NC(=O)N2CCC(C(C)(F)S(=O)(=O)c3cc(C(F)(F)F)nn3C)CC2)cn1 (stereo not drawn) | ++ (++ represents myosin activation value AC20 from 2 µM - 5 µM) |
| O=C(Nc1ccns1)N1CCC(C2(S(=O)(=O)c3cccc(F)c3)CC2)CC1 | +++ (+++ represents myosin activation value AC20 < 2 µM) |
| O=C(Nc1ccnnc1)N1CCC(CS(=O)(=O)c2cccc(F)c2)CC1 | + (+ represents myosin activation value AC20 > 5 µM) |
| C[C@H](O)c1cc(NC(=O)N2CCC([C@](C)(F)S(=O)(=O)c3cccc(F)c3)CC2)ccn1 | + (+ represents myosin activation value AC20 > 5 µM) |
| Cn1cc(S(=O)(=O)[C@@](C)(F)C2CCN(C(=O)Nc3cccnc3)CC2)c(C(F)F)n1 | ++ (++ represents myosin activation value AC20 from 2 µM - 5 µM) |
| Cn1nc(C(F)F)cc1S(=O)(=O)C(C)(F)C1CCN(C(=O)Nc2ccc(F)nc2)CC1 (stereo not drawn) | + (+ represents myosin activation value AC20 > 5 µM) |
| O=C(Nc1ccns1)N1CCC(C2(S(=O)(=O)c3ccc(OC(F)(F)F)cc3)CC2)CC1 | +++ (+++ represents myosin activation value AC20 < 2 µM) |
| Cc1cc(S(=O)(=O)C(F)(F)C2CCN(C(=O)Nc3ccnnc3)CC2)n(C)n1 | ++ (++ represents myosin activation value AC20 from 2 µM - 5 µM) |
| Cn1cc(S(=O)(=O)[C@@](C)(F)C2CCN(C(=O)Nc3cc[nH]n3)CC2)c(C(F)F)n1 | ++ (++ represents myosin activation value AC20 from 2 µM - 5 µM) |
